Assay results reported in ChEMBL document CHEMBL1156818, “Rational design of indoleamine 2,3-dioxygenase inhibitors” (J Med Chem, 2010).

The chains behind the UniProt entries cited, without tags or fusion partners. Where a name states a change or a piece, a line headed by the entry shows the natural chain unless it says otherwise.
UniProt P14902, whole entry: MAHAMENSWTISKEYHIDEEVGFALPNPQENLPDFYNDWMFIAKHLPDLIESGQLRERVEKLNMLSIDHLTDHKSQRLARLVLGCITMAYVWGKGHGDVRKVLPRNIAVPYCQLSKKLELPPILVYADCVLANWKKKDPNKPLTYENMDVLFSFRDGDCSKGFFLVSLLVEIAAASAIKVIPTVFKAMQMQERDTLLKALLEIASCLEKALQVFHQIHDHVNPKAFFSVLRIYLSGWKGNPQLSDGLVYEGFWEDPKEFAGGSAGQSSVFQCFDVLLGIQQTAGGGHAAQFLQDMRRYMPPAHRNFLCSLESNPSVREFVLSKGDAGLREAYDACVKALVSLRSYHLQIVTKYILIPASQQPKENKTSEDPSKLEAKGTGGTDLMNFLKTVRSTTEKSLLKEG
UniProt P28776: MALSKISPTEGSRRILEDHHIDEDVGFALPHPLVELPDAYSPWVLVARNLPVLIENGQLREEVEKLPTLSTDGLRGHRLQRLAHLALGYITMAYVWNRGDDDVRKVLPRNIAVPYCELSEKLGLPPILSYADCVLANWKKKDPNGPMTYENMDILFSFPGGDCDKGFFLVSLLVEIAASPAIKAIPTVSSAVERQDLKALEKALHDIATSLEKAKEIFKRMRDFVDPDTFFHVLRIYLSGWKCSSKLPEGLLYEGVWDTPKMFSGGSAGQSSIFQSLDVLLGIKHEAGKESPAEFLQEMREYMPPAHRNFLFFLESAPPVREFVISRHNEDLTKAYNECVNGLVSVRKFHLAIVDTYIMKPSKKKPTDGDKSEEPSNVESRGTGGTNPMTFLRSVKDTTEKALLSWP

What was measured:
[1] = target: T1, Indoleamine 2,3-dioxygenase 1 (Homo sapiens, UniProt P14902); assay: Inhibition of human recombinant IDO expressed in HEK293 cells assessed as blockade of tryptophan degradation by HPLC; format: cell-based
[2] = target: T1, Indoleamine 2,3-dioxygenase 1
[3] = target: Indoleamine 2,3-dioxygenase 1 (Mus musculus, UniProt P28776); assay: Inhibition of mouse recombinant IDO expressed in mouse P815B cells assessed as blockade of tryptophan degradation by HPLC; format: cell-based

SMILES | IC50 [1] | IC50 [2] | IC50 [3]
Oc1ccc(O)c2ccccc12 | 10 µM | 1500 nM | –
CCNc1ccc(O)c2ccccc12 | – | – | 50 µM
